Conditions: rabbit, in vivo

## carbamazepine [CBZ]
  Expected increase of plasma levels of CBZ with diltiazem: ~30%
